Experimental data: patent publication US20120283096A1, “AGENT FOR IMPROVING PLANT GROWTH, SEEDS, AND METHOD FOR IMPROVING PLANT GROWTH” (Incorporated Administrative Agency National Agricu lture …, priority 2010, published 2012)

Tests used:
paddy seeds = test: Possibility of growth of paddy seeds in tank farming without soil (Example 3)
Protocol: The decay-inhibiting effect of molybdenum-containing substances in tank farming without soil was examined.
The possibility of growth and the inhibition of decay were determined in the same manner as above.

[1] = in water, powder, cited from earlier work
paddy rice = test: Seedling establishment of paddy seeds soaked in solutions of readily-soluble molybdenum substances (Example 2-2, FIGS. 8 and 13); format: in vivo; details: ten-minute soaking
Protocol: The examination of the proportion of seedling establishment was carried out under the same conditions as the examination whose results are shown in FIG. 8, except for the molybdenum concentration and the duration of soaking.

sulfide ion generation = test: Inhibition of sulfide ion generation, paddy seeds covered with slightly-soluble substances (Example 2-3, FIG. 9); details: approximately 0.1 mmol/g (per dry seeds) in terms of molybdenum or tungsten
Text: The water on slightly germinated seeds was lightly wiped off, and immediately after that, the seeds were put with (lightly covered with) various amounts of the slightly-soluble substances shown in Table 1. […] The number of days for which sulfide ion generation was inhibited and the proportion of seedling establishment were examined.

**Q.** With “12-moblybdo(VI)phosphoric acid n-hydrate [Molybdophosphoric acid]” as the substance, how does the “Soaking: Possibility of growth, Concentration of Molybdenum in Solution” value (paddy seeds; in vivo) read?
**A.** 0.03 M

**Q.** What about the “Ten-minute soaking: Possibility of growth, Concentration of Molybdenum in Solution” value (paddy seeds; in vivo) of the same substance?
**A.** 1< M

**Q.** What about the Water solubility [1] of the same substance?
**A.** Readily soluble

**Q.** And the Water solubility ([1]; listed as molybdophosphoric acid)?
**A.** readily soluble

**Q.** With Ammonium molybdate tetrahydrate as the substance, how does the “molybdenum concentration of the soaking solution at which proportion of seedling establishment improved” value (paddy rice; FIG. 8) read?
**A.** approximately 1 M

**Q.** What about the “proportion of seedling establishment” value (paddy rice; soaking solution 2 M molybdenum) of the same substance?
**A.** decrease in proportion of seedling establishment

**Q.** What about the “Soaking: Possibility of growth, Concentration of Molybdenum in Solution” value (paddy seeds; paddy seeds left soaked two weeks in the solution at 30° C., no soil, concentration at which sheath leaf elongation was observed) of the same substance?
**A.** 0.06 M

**Q.** What about the “Ten-minute soaking: Possibility of growth, Concentration of Molybdenum in Solution” value (paddy seeds; seeds soaked ten minutes in the solution, then two weeks in water at 30° C.) of the same substance?
**A.** 1< M

**Q.** And the Water solubility [1]?
**A.** Readily soluble

**Q.** What about the Water solubility ([1]; listed as ammonium molybdate) of the same substance?
**A.** readily soluble

**Q.** For “Ammonium phosphotungstate trihydrate [Ammonium tungstophosphate]”, which “number of days for which sulfide ion generation was inhibited” value (sulfide ion generation) is on record?
**A.** fourteen

**Q.** What about the Water solubility [1] of the same substance?
**A.** Slightly soluble (has a percentage of solubility of 10% by weight or lower with respect to water)

Like-named read-outs stand apart in the source and are kept apart here.
